According to US20100189786A1, “CRYSTALLINE TOLTERODINE TARTARATE AND A PHARMACEUTICAL COMPOSITION CONTAINING THE SAME” (priority 2006, published 2010):

Experiment: Solubility in water
Format: physicochemical

With `Cc1ccc(O)c([C@H](CCN(C(C)C)C(C)C)c2ccccc2)c1.O=C(O)C(O)C(O)C(=O)O` [R-tolterodine tartarate, salt of 2-[(1R)-3-[bis(1-methylethyl)amino]-1-phenylpropyl]-4-methyl-phenol with (2R,3R)-2,3-dihydroxybutanedioic acid] the “solubility in cold water” value (cold water) was “poorly soluble” and the solubility in water (water) was “poorly soluble”.
